{
  "source": "PubChem BioAssay AID1508646",
  "about": "(National Center for Advancing Translational Sciences (NCATS), 2021)",
  "experiment": "Cell-based coincidence reporter assay to measure PMP22 gene transcription in S16 Pmp22-F2sN cells - Confirmatory screen",
  "conditions": "S16 Schwann cells Pmp22-F2sN, dual luciferase, 24 h; at 57.5 µM (top of the series)",
  "source_text": "Assay Provider: Jim Inglese Ph.D. National Center for Advancing Translational Science, National Institutes of Health, Rockville, MD CMT is a heterogeneous group of neurological disorders that affect approximately 1 in 2,500 people. In particular, the most common form of CMT, CMT1A is genetically linked to the duplication of the PMP22 gene which leads to Schwann cell overexpression, thus manifesting itself as a typical case of dose-sensitive diseases. […] We can further discriminate the effect of all transcriptionally active molecules on PMP22 translation or stability with an assay that incorporates a short NLuc peptide (HiBiT) at the C-terminus of expressed PMP22 (S16(f8) PMP22-HiBiT) allowing alpha complementation and luminescence detection of membrane-associated PMP22 protein. […] Miniaturization of these assays to 1536-well plate format for quantitative high throughput screening (qHTS) yielded rich data sets immediately from the qHTS assay (S16(c9) Pmp22-F2sN), when compared with data from a cell viability assay (Cell TiterGlo) to identify compounds that decreased the output signals through cellular toxicity to streamline the selection process of actives for subsequent characterization using the HiBiT assay (S16(f8) PMP22-HiBiT). […]",
  "note": "This is a selection; strong and weak results do not stand in their true shares. Results filed as inconclusive are left out. The source made the active and inactive calls. How the source made its calls: active means clear falling dose curves in both reporters; inconclusive means both reporters move, but less clearly or upward; inactive means either reporter flat; the % is the FLuc reporter signal.",
  "data": [
    {"smiles": "CC(C)(C)c1ccc(C(=O)NCC2(N3CCOCC3)CCCCC2)cc1", "values": [
      {"measurement": "activity change, negative = inhibition", "result": "inactive: -16.6%"}
    ]}
  ]
}
